Data: US11352316B2, “Opioid receptor modulators and products and methods related thereto” (priority 2018, dated 2022)

Test system: Male Sprague-Dawley rats
Test: Respiratory depression assay (whole body plethysmograph)
Conditions: rat, 30 mg/kg SC after fentanyl 3 mg/kg SC, FIG. 2

For `CN(C)[C@H](CNC(=O)[C@@H]1C[C@]1(C)c1ccccc1)Cc1ccc(O)cc1Cl` [Compound B-15, (1R,2S)—N—((S)-3-(2-chloro-4-hydroxyphenyl)-2-(dimethylamino)propyl)-2-methyl-2-phenylcyclopropane-1-carboxamide], the “effect on respiratory depression of fentanyl (minute volume, % of baseline)” value was “blocks in vivo the respiratory depression of the MOR agonist fentanyl”.
